Compounds with a hit are over-represented: about 16% of the library has one in this group of screens.
miR-21 reporter: raises the signal of a miR-21 reporter | HeLa miR-21 FLuc reporter, luciferase, 48 h | Potency, µM (highest dose often 38.3 µM) | 340,000 tested, under 10 active | AID 2288; active = well fitted rising curve with a large enough effect; inconclusive = small, poorly fitted or top-dose-only effect; inactive = no such curve, though single readings can be large or run the other way;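 note: miR-21 action dims this reporter so a rising signal means less miR-21 action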
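HeLa cells stably expressing CMV-driven firefly luciferase with a downstream miR-21 binding sequence, endogenously expressing miR-21, were treated with titrations (up to about 40uM final) for 48 hours at 37 degree Celsius. Luciferase luminescence was read after lysis.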
TDP1 cell CPT: DT40-hTDP1 cell growth loss with CPT; actives 12% (n = 420,000); Potency, µM (titrated, usually from 46.2 µM), actives largely listed as inhibitors; AID 686979; chicken DT40 Tdp1-/-;hTDP1 cells + 20 nM CPT, ATP luminescence, 48 h; further: nearly all actives have a fitted effect of over 55% in size
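Cell growth measured by CellTiter-Glo luminescence after a minimum 48 h, 37 C compound exposure with 20 nM CPT in Tdp1-knockout DT40 cells stably expressing hTDP1, seeded 400/well; qHTS titration format.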
DT40 TDP1 no CPT: qHTS for Inhibitors of human tyrosyl-DNA phosphodiesterase 1 (TDP1): qHTS in cells in absence of CPT; DT40 Tdp1-/- hTDP1 cells, no CPT, ATP luminescence, 48 h; actives 15% (n = 420,000); Potency, µM (highest dose often 46.2 µM), usual class: inhibitors; AID 686978, 2013; further: nearly all actives have a fitted effect of over 55% in size
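Seeded 400 DT40-hTDP1 cells/well (vehicle DMSO, no 20 nM CPT); pinned compounds; ≥48 hr at 37 °C; CellTiter-Glo luminescence as viability measure.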
uPA generation: blocks generation of uPA at the cell surface; cell surface uPA generation assay, qHTS; Potency, µM (highest dose often 38.3 µM), actives largely listed as inhibitors; actives 0.31% (n = 330,000); active means well fitted inhibition curve with a large enough effect; inconclusive means small, poorly fitted or top-dose-only effect; inactive means no such curve, though single readings can be large or run the other way; tested in mouse RAW 264.7 cells; further: nearly all actives have a fitted effect of over 55% in size
TDP1 inh: blocks human tyrosyl-DNA phosphodiesterase 1; Q9NUW8; recombinant TDP1, AlphaScreen DNA substrate cleavage; Potency, µM (doses to about 130 µM), hits mostly inhibitors; actives 0.28% (n = 350,000); further: nearly all actives have a fitted effect of over 40% in size
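Signal: AlphaScreen proximity between streptavidin donor and anti-FITC acceptor beads on intact substrate. Reaction: Tdp1 1 nM, substrate 15 nM final, 5 min RT after 15 min compound preincubation.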
Numbers stand for hits; n = inactive; u = inconclusive; x = no result; [ ] = another dose, or the depositor's remark. Unless noted, the call rests on the fitted dose curve; in most records, active means well fitted curve in the direction sought with a large enough effect; inconclusive means small, poorly fitted or top-dose-only effect, or another doubt; inactive means no such curve, though single readings can be large; an effect the other way counts as inactive or inconclusive.

SMILES | miR-21 reporter | TDP1 cell CPT | DT40 TDP1 no CPT | uPA generation | TDP1 inh
CNC(C)C#Cc1ccc2c(=O)c3c(OC)cccc3oc2c1 (configuration not stated) | n | x | x | x | x
Cn1c2ccccc2c(=O)c2cc(C#Cc3ccc(N)cc3)ccc21 | n | u | u | u | x
COc1cc2sc3ccc(C#Cc4ccc(N)cc4)cc3c(=O)c2cc1OC | x | n | u | n | x
Oc1ccc(Br)cc1/C=N/Nc1ncc(-c2ccccc2)cn1 | n | 6.51µM | 8.2µM | n | n
O=[N+]([O-])c1ccccc1/C=N/Nc1nccnc1Cl | n | n | n | x | n
Oc1ccc(C=NNc2ccccn2)c(O)c1 | x | 4.11µM | 2.91µM | n | x
Oc1ccc(/C=N/Nc2nccnc2Cl)c(O)c1 | n | 3.26µM | 3.26µM | n | n
Oc1ccccc1/C=N/Nc1nccnc1Cl | n | 4.61µM | 2.91µM | n | n
COc1ccc(/C=N/Nc2nccnc2Cl)c(OC)c1 | n | n | n | n | n
C=CCn1c(=O)c(C(=O)Nc2ncccc2C)c(O)c2ccccc21 | x | n | n | x | x
COc1ccc(C2(CNC(=O)c3cccc([N+](=O)[O-])c3)CCOCC2)cc1OC | n | u | u | n | n
Oc1ccc(/C=N/Nc2ncc(Br)cn2)c(O)c1 | n | 7.31µM | 7.31µM | n | n
Oc1ccc(/C=N/Nc2cccc3cccnc23)c(O)c1 | n | u | u | u | n
CCCCC(=O)NCCc1c(Cc2ccccc2)[nH]c2ccccc12 | x | u | 18.4µM | x | n
Cc1noc(C)c1S(=O)(=O)NCc1ccc2c(c1)OCO2 | n | n | n | n | n
O=C1c2cnc3nc(SCc4ccccc4)nn3c2CC2c3ccccc3CCN12 (configuration not stated) | n | u | 18.4µM | n | n
Cc1cc(C(=O)COC(=O)c2ccc(CO)cc2)c(C)n1CC1COc2ccccc2O1 (configuration not stated) | n | 23.1µM | u | n | n
Cc1cc(C(=O)CN2C(=O)C(=O)N(Cc3ccccc3)C2=O)c(C)n1Cc1ccccc1 | x | u | u | n | n
Cc1cc(C(=O)CSc2nnc(-c3ccco3)o2)c(C)n1CC1COc2ccccc2O1 (configuration not stated) | n | 16.4µM | 20.6µM | n | n
Cc1cc(C(=O)CN2C(=O)C(=O)N(Cc3ccccc3)C2=O)c(C)n1CC1COc2ccccc2O1 (configuration not stated) | n | n | 18.4µM | n | n
Cc1ccc(CN2C(=O)c3ccccc3Sc3ccc(C(=O)NCc4ccco4)cc32)cc1 | n | n | u | x | n
Cc1cccc(/C(N)=N/OC(=O)N2c3ccccc3Sc3ccccc32)c1 | n | u | 20.6µM | n | n
CCCCc1c(C)[nH]c2c(OC)cccc2c1=S | x | n | u | x | x
C=CCc1c(C)[nH]c2c(OC)cccc2c1=S | n | 13µM | 18.4µM | n | n
COc1ccc(C(=O)NC(=S)Nc2ccc3[nH]c(=O)[nH]c3c2)cc1 | n | n | n | n | n[0.0935 µM]
SMILES | miR-21 reporter | TDP1 cell CPT | DT40 TDP1 no CPT | uPA generation | TDP1 inh
CCCOc1cccc(C(=O)N(Cc2ccc(C)o2)C2CCS(=O)(=O)C2)c1 (configuration not stated) | n | u | u | x | n
CCCCOc1cccc(C(=O)N(Cc2sccc2C)C2CCS(=O)(=O)C2)c1 (configuration not stated) | n | u | 14.6µM | x | n
CCCCOc1ccccc1C(=O)N(Cc1sccc1C)C1CCS(=O)(=O)C1 (configuration not stated) | n | u | 20.6µM | x | n
CCCOc1cccc(C(=O)N(Cc2sccc2C)C2CCS(=O)(=O)C2)c1 (configuration not stated) | n | u | 13µM | x | n
COC(=O)C/C=C/[C@@H](C)[C@@H](/C=N/O[C@H](C)c1cn([C@@H]2COC[C@H]2O)nn1)NS(=O)(=O)c1ccc(C)cc1 | n | x | x | x | n
COC(=O)c1c(NC(=O)c2ccco2)sc(C)c1C | n | n | n | n | n
S=C(NCCN1CCOCC1)Nc1ccc(-c2nc3ccccc3[nH]2)cc1 | n | n | u | 10µM | n
COC(=O)c1c(NC(=O)c2ccco2)sc(C(=O)Nc2ccc(F)cc2)c1C | n | u | 23.1µM | n | n
O=C(CSc1ccc(-c2nc3ccccc3[nH]2)cn1)N1CCN(C(=O)c2ccco2)CC1 | n | 23.1µM | u | x | n
CC(C)OC(=O)c1ccc(NC(=O)c2ccco2)cc1 | n | 18.4µM | 23.1µM | n | n
Cc1onc(-c2ccccc2)c1C(=O)NC1CC1 | x | n | n | n | n
O=C(Nc1ccc(-c2nc3ccccc3[nH]2)cc1)c1ccco1 | n | 14.6µM | 14.6µM | n | n
O=C(Nc1ccc(Nc2ccccc2)cc1)c1ccco1 | n | 20.6µM | 20.6µM | n | n
O=C(/C=C/c1ccco1)Nc1ccc(-c2nc3ccccc3[nH]2)cc1 | n | n | u | n | u
CCN(CC(=O)Nc1ccc(OC)cc1)C(=O)c1cc(-c2cccs2)nn1-c1ccccc1 | x | u | 16.4µM | n | n
COc1ccc(NC(=O)CN(C)C(=O)c2cn(-c3ccccc3)nc2-c2cccs2)cc1 | x | u | 16.4µM | n | n[0.505 µM]
CCOc1ccc(NC(=O)CN(C)C(=O)c2cc(-c3cccs3)nn2-c2ccccc2)cc1OCC | x | u | u | n | x
COc1ccc(NC(=O)CN(C)C(=O)c2cc(-c3cccs3)nn2-c2ccccc2)cc1 | x | u | 14.6µM | n | n
CN(CC(=O)Nc1ccc(F)cc1)C(=O)c1cc(-c2cccs2)nn1-c1ccccc1 | x | u | 13µM | n | n
Oc1ccc(O)c(-c2cnns2)c1 | n | 14.6µM | u | n | n
CO/C=C\C=C/c1nnn(-c2ccc(Cl)cc2)n1 | n | u | 23.1µM | n | n
CCCCN(C(=O)c1ccccc1Cl)C(CC(C)C)c1nc2ccccc2[nH]1 (configuration not stated) | x | 20.6µM | u | x | x
COc1cccc(/C=C/c2nc(C#N)c(NCCc3ccc(OC)c(OC)c3)o2)c1 | n | u | n | x | n
COc1ccc(Nc2oc(/C=C/c3cc(OC)c(OC)c(OC)c3)nc2C#N)cc1 | n | u | u | x | n
CCOc1ccc(Nc2oc(/C=C/c3cccc(OC)c3)nc2C#N)cc1 | n | u | 23.1µM | x | n
CCOc1ccc(/C=C/c2nc(C#N)c(NC3CCCCC3)o2)cc1 | n | u | u | x | n
CCOc1ccc(Nc2oc(/C=C/c3cc(OC)c(OC)c(OC)c3)nc2C#N)cc1 | n | u | u | x | n
CCOc1ccc(/C=C/c2nc(C#N)c(NC(C)c3ccccc3)o2)cc1 (configuration not stated) | n | 13µM | 11.6µM | x | n
CCOc1ccc(/C=C/c2nc(C#N)c(Nc3ccc(OC)cc3)o2)cc1 | n | 20.6µM | 16.4µM | x | n
COc1ccc(CNc2oc(/C=C/c3cccc(OC)c3)nc2C#N)cc1 | n | 23.1µM | 23.1µM | x | n
